ChEMBL document CHEMBL4020701, “A strategy for dual inhibition of the proteasome and fatty acid synthase with belactosin C-orlistat hybrids” (Bioorg Med Chem, 2017)

Amino acid sequences for entries named in this document (tags omitted). A change or cut given only in a name is not applied to a line headed by its entry.
UniProt P28074: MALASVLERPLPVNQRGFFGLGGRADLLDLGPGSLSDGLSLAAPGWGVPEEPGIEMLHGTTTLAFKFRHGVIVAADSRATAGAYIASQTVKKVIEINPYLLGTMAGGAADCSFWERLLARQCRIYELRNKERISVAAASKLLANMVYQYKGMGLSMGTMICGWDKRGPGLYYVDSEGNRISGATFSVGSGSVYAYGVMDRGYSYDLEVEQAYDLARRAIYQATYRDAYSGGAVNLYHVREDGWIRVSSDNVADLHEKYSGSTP

Target: Proteasome Macropain subunit MB1 (Homo sapiens, UniProt P28074)
Assay: Inhibition of chymotrypsin-like activity of 20S proteasome in human red blood cells pretreated for 20 mins followed by Suc-Leu-Leu-Val-Tyr-AMC substrate addition by fluorescence assay
Type: cell-based
Procedure, shortened: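 20S proteasome (50 ng) from human erythrocytes, preincubated 20 min at 37 °C in 20 mM Tris pH 7.5 with inhibitor series. AMC substrate then added: 10 µM Suc-LLVY for chymotrypsin-like, 20 µM Boc-LRR for trypsin-like, 20 µM Z-LLE for caspase-like. Hydrolysis followed at 360/460 nm for 600 s; the linear rate was fitted to a four-parameter curve for IC50. Triplicate.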

Row | IC50 [nM] | SMILES
1 | 3390 | CCCCCC[C@@]1(C)C(=O)O[C@H]1C(=O)NCCCC[C@H](NC(=O)[C@H](C)NC(=O)OCc1ccccc1)C(=O)OCc1ccccc1
2 | 2430 | CCCCCC[C@]1(C)C(=O)O[C@H]1C(=O)NCCCC[C@H](NC(=O)[C@H](C)NC(=O)OCc1ccccc1)C(=O)OCc1ccccc1
3 | 510 | CCCCCC[C@@H]1C(=O)O[C@H]1C(=O)NCCCC[C@H](NC(=O)[C@H](C)NC(=O)c1ccc(Br)cc1)C(=O)OCc1ccccc1
4 | 2180 | CCCCCC[C@@]1(C)C(=O)O[C@@H]1C(=O)NCCCC[C@H](NC(=O)[C@H](C)NC(=O)OCc1ccccc1)C(=O)OCc1ccccc1
